From ChEMBL document CHEMBL1136711, “Synthesis and SAR of bicyclic heteroaryl hydroxamic acid MMP and TACE inhibitors” (Bioorg Med Chem Lett, 2003)

Target: Collagenase 3 (Homo sapiens, UniProt P45452)
Experiment: Inhibitory activity against matrix metalloprotease 13 (MMP-13).

IC50: 100 nM
SMILES: CC#CCOc1ccc(S(=O)(=O)N(C)c2c(C(=O)NO)cnc3c2c(C)nn3C)cc1
